1 compound from patent publication US5466700A (priority 1993, dated 1995) can be followed below.

This test deals with patients. Conditions: small oral dose, preoperative.

Take `CN1C(=O)C(O)N=C(c2ccccc2)c2cc(Cl)ccc21` (stereo not shown): the “loss of consciousness with oral benzodiazepine premedication” value is on record as “did not lead to loss of consciousness”.
